Results taken from ChEMBL document CHEMBL4014343 (J Med Chem, 2017).

Protein sequences, listed by entry. Tags and fused reporters are not part of them.
UniProt Q00535, whole entry: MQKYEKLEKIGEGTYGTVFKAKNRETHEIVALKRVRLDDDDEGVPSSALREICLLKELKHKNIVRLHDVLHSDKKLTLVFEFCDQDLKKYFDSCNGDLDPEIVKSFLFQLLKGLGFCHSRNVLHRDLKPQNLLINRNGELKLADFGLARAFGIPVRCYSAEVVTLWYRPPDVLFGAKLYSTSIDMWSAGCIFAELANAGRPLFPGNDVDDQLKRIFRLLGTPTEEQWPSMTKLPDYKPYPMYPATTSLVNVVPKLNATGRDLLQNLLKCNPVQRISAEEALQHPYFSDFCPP

Biological target: Cyclin-dependent kinase 5/CDK5 activator 1 (Homo sapiens, UniProt Q00535)

## O=C1Nc2ccccc2/C1=C1/Nc2ccccc2C1=O [INDIRUBIN]
  IC50: 5.5 µM
